Experimental findings from US6218112A, “Optimization of gene delivery and gene delivery system” (Cobra Therapeutics Limited, priority 1997, dated 2001) are described below.

This data set in a line: Solubility of complexes prepared with NBC peptides. Conditions: without salt at >20 μg/ml.

Consider “NH2-PKKKRKVEKKSPKKAKKPAAKSPAKKAKAVKPK-AAKPKKPKKKRKVEKKSKKAKKPAAC(Acm)--COOH”, for which the solubility of complexes entry is listed as “insoluble”.
